The record followed here is publication PMC6539809, “Development of Oxygen-Bridged Pyrazole-Based Structures as Cannabinoid Receptor 1 Ligands” (Molecules, 2019).

By UniProt entry, the sequences of proteins in these tests, tags left out.
UniProt P47746, whole entry: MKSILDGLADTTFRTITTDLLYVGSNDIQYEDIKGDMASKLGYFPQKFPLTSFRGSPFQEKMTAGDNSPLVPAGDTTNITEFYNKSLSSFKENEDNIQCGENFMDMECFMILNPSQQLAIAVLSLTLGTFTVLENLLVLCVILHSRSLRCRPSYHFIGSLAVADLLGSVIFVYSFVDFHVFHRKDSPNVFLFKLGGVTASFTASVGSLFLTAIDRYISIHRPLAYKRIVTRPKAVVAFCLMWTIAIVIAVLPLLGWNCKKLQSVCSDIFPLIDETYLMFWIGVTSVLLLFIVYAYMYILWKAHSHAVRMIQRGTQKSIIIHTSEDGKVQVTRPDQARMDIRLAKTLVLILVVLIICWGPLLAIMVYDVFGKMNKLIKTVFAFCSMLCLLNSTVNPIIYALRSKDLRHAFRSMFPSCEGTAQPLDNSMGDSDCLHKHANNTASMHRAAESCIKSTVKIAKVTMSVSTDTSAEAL

The test concerns the target T1, CB1Rs of mouse vas deferens (Mus musculus, UniProt P47746).
T1 construct: naturally expressed prejunctional neuronal CB1Rs; from tissue; host or cells: isolated vas deferens of male albino CD1 mice
Briefly: Isolated organ assay: electrically evoked contractions of mouse vas deferens. The note with it: cumulative concentration-response curve.

Molecules are shown by their SMILES.

In the case of `Cc1c(C(=O)c2cccc3ccccc23)c2cccc3c2n1[C@H](CN1CCOCC1)CO3` [WIN 55,212-2, reference compound], the “Maximum inhibition of the amplitude of electrically-evoked contractions” value is “approximately 100%”.
